Data on 20 compounds can be found in PubChem BioAssay (NCI).

Experiment [1] is described as follows: NCI Yeast Anticancer Drug Screen. Data for the rad50 strain (AID 155).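 Further: 0% = growth of vehicle-only cultures of the same strain.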 As to conditions: S. cerevisiae rad50 strain growth inhibition; at 50.0 µM; hits give high values.
A short description of experiment [2]: NCI Yeast Anticancer Drug Screen. Data for the mec2-1 strain (AID 157). As to conditions: S. cerevisiae mec2-1 strain, at 50.0 µM, hits give high values.
A short description of experiment [3]: NCI Yeast Anticancer Drug Screen. Data for the sgs1 mgt1 strain (AID 161).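 Further: 0% = growth of cultures given vehicle only.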 As to conditions: S. cerevisiae sgs1 mgt1 strain, at 50.0 µM, hits give high values.
Experiment [4] can be described thus: NCI Yeast Anticancer Drug Screen. Data for the cln2 rad14 strain (AID 165).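 Further: 0% = growth equal to vehicle treated cultures.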 As to conditions: S. cerevisiae cln2 rad14 strain, at 50.0 µM, hits give high values.
Experiment [5] can be described thus: NCI Yeast Anticancer Drug Screen. Data for the bub3 strain (AID 167). As to conditions: S. cerevisiae bub3 mutant strain, at 50.0 µM, hits give high values.
A short description of experiment [6]: NCI Yeast Anticancer Drug Screen. Data for the mlh1 rad18 strain (AID 175). As to conditions: S. cerevisiae mlh1 rad18 strain growth inhibition; at 50.0 µM; hits give high values.

This is a selection; strong and weak results do not stand in their true shares. A structure can be active in one record and inactive in another. The source made the active and inactive calls. No stated cut-off is given here; in the data, active means growth inhibition above about 70%; inactive means the rest.

For the compound `CC1CCCCCN1CCCl` (stereo not given), the growth inhibition is inactive: -3.5% in experiment [1]; inactive: 0.3% in experiment [2]; inactive: 2.05% in experiment [3]; inactive: -19.8% in experiment [4]; inactive: -13.7% in experiment [5]; inactive: 17% in experiment [6].

Consider `[N-]=[N+]=Nc1ccc(F)c([N+](=O)[O-])c1`, for which the growth inhibition was inactive: -4.75% in experiment [1]; inactive: -1.8% in experiment [2]; inactive: -2.75% in experiment [3]; inactive: 6.3% in experiment [4]; inactive: -12.3% in experiment [5]; inactive: 1.05% in experiment [6].

For the compound `O=P(OCCCO)(N(CCCl)CCCl)N1CC1` (stereo not given), the growth inhibition was inactive: 12.5% in experiment [1]; inactive: 8.5% in experiment [2]; inactive: 12.3% in experiment [3]; inactive: 6% in experiment [4]; inactive: 2.6% in experiment [5]; inactive: 3.55% in experiment [6].

For the compound `C[N+]1([O-])C2CCC1CC(OC(=O)C(CO)c1ccccc1)C2` (stereo not given), the growth inhibition was inactive: 22.2% in experiment [1]; inactive: 11.8% in experiment [2]; inactive: 37.8% in experiment [3]; inactive: -51.8% in experiment [4]; inactive: 6.45% in experiment [5]; inactive: 13.4% in experiment [6].

In the case of `O=[As](O)(O)CC(O)CO` (stereo not given), the growth inhibition in experiment [1] was inactive: 3.15%; in experiment [2], inactive: -15%; in experiment [3] it was inactive: 10.6%; in experiment [4], inactive: 23.4%; in experiment [5], inactive: 0.1%; in experiment [6], inactive: -5.3%.

In the case of `Nc1ncnc2nc[nH]c12`, the growth inhibition in experiment [1] is inactive: 2.05%; in experiment [2], inactive: -5.3%; in experiment [3] it was inactive: 0.75%; in experiment [4] it was inactive: 6%; in experiment [5] it was inactive: 21.2%; in experiment [6], inactive: 3.7%.

For the compound `O=C(O)C1COP(=O)(N(CCCl)CCCl)N1` (stereo not given), the growth inhibition is inactive: -36.1% in experiment [1]; inactive: -15.8% in experiment [2]; inactive: 2.6% in experiment [3]; inactive: -22.5% in experiment [4]; inactive: 6.95% in experiment [5]; inactive: 10.1% in experiment [6].

`Clc1ccnc2ccc(-c3ccccc3)cc12`: the growth inhibition in experiment [1] is active: 99.4%; in experiment [2], active: 99.5%; in experiment [3], active: 99.6%; in experiment [4], active: 97.8%; in experiment [5] it was active: 74%; in experiment [6], active: 99.4%.

Take `COc1ccc(C2N=C(NN=C(CCl)CCl)SP2(=O)Nc2ncccn2)c(OC)c1` (stereo not given): the growth inhibition in experiment [1] was inactive: 14.2%; in experiment [2], inactive: -6.65%; in experiment [3] it was inactive: -6.5%; in experiment [4], inactive: -35.2%; in experiment [5] it was inactive: 17.2%; in experiment [6] it was inactive: 9.85%.

With `[N-]=[N+]=NCC(N)=O`, the growth inhibition in experiment [1] is inactive: -3.1%; in experiment [2] it was inactive: -10.8%; in experiment [3] it was inactive: -2.5%; in experiment [4], inactive: -4.05%; in experiment [5], inactive: 1.35%; in experiment [6] it was inactive: -3.3%.

As to `CCOP(=O)(NC(=S)NNC(=O)c1ccncc1)NC(=S)NNC(=O)c1ccncc1`, the growth inhibition was inactive: 5.3% in experiment [1]; inactive: 9.7% in experiment [2]; inactive: 3.5% in experiment [3]; inactive: 6.55% in experiment [4]; inactive: -2.35% in experiment [5]; inactive: -11.6% in experiment [6].

Take `Nc1nc(N)c(NCCCc2ccc(NC(=O)c3cccc(S(=O)(=O)F)c3)cc2)c(-c2ccccc2)n1`: the growth inhibition in experiment [1] was inactive: 14.9%; in experiment [2], inactive: 23.4%; in experiment [3] it was inactive: 57.3%; in experiment [4], inactive: -4.9%; in experiment [5], inactive: -12.7%; in experiment [6], inactive: 54.5%.

Regarding `N/C=N/P(=O)(Oc1ccccc1)Oc1ccccc1`, the growth inhibition in experiment [1] is inactive: 25.6%; in experiment [2], inactive: 19.3%; in experiment [3] it was inactive: 9.25%; in experiment [4], inactive: 8.65%; in experiment [5], inactive: 7.1%; in experiment [6], inactive: 8.5%.

As for `N/C(=N\[N+](=O)[O-])NNC=O`, the growth inhibition in experiment [1] was inactive: 1.05%; in experiment [2], inactive: -8.25%; in experiment [3] it was inactive: -14.1%; in experiment [4] it was inactive: -51.1%; in experiment [5] it was inactive: 8.5%; in experiment [6], inactive: 3%.

With `CCCNC(=O)c1ccc(N(CCCl)CCCl)cc1`, the growth inhibition in experiment [1] is inactive: 12.7%; in experiment [2], inactive: 11.8%; in experiment [3], inactive: -39.8%; in experiment [4], inactive: -22.1%; in experiment [5], inactive: -38.2%; in experiment [6] it was inactive: -16.3%.

`CC1(C)OC2OC3COP(=O)(N(CCCl)CCCl)OC3C2O1` (stereo not given): the growth inhibition in experiment [1] was inactive: -36.5%; in experiment [2], inactive: 1.05%; in experiment [3] it was inactive: -59.4%; in experiment [4], inactive: -3.15%; in experiment [5] it was inactive: -37.6%; in experiment [6], inactive: -46%.

In the case of `CCC(=O)ON[N+](=O)[O-]`, the growth inhibition in experiment [1] is inactive: -11.1%; in experiment [2], inactive: -0.85%; in experiment [3], inactive: -11.8%; in experiment [4] it was inactive: 7.65%; in experiment [5], inactive: 11.8%; in experiment [6], inactive: 4.9%.

Regarding `CCCCNC(=NC)NP(=O)(NCCCC)NCCCC`, the growth inhibition was inactive: 15.2% in experiment [1]; inactive: 6.25% in experiment [2]; inactive: 8.6% in experiment [3]; inactive: 6.05% in experiment [4]; inactive: -3.95% in experiment [5]; inactive: -8.2% in experiment [6].

Regarding `c1ccc([As+](c2ccccc2)(c2ccccc2)c2ccccc2)cc1`, the growth inhibition in experiment [1] is inactive: 26.1%; in experiment [2], inactive: 2.4%; in experiment [3], inactive: 11.4%; in experiment [4], inactive: -0.05%; in experiment [5] it was inactive: -1.8%; in experiment [6] it was inactive: 7.25%.

For the compound `O=[As](O)(O)c1ccc(O)cc1`, the growth inhibition in experiment [1] was inactive: -13.9%; in experiment [2], inactive: -10.3%; in experiment [3], inactive: 12.6%; in experiment [4], inactive: -44.1%; in experiment [5] it was inactive: -21.8%; in experiment [6], inactive: -14.6%.
